Measured values taken from ChEMBL document CHEMBL5131434, “Design and synthesis of novel orexin 2 receptor agonists based on naphthalene skeleton” (Bioorg Med Chem Lett, 2022).

Species on record: Homo sapiens
Test: Selectivity ratio of Ki for antagonist activity at human OX1R expressed in CHO-K1 cells to Ki for antagonist activity at human OX2R expressed in CHO-K1 cells
Assay type: cell-based

For `COc1ccc(C(=O)Nc2cccc([C@]3(C)O[C@@H]4CO[C@H]5N4[C@@H]3O[C@@]5(C)c3cccc(NC(=O)c4ccc(OC)cc4)c3)c2)cc1`, the Ratio Ki was 6.6.
